Data taken from PubChem BioAssay (NCATS).
Only a part is listed here, and it is no random draw. Results filed as inconclusive are left out. The source made the active and inactive calls. Unless noted, calls come from the whole dose curve; as a rule, active = well fitted curve in the direction sought with a large enough effect; inconclusive = small, poorly fitted or top-dose-only effect, or another doubt; inactive = no such curve, though single readings can be large; an effect the other way counts as inactive or inconclusive.

What was measured:
[1] = AP1 Signaling Pathway (AID 357; active = well fitted curve in either direction with a large enough effect, not every such curve was filed as active;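 note: ME-180 reporter cells stimulated with EGF at its EC50 level; % is set by controls: 0 for no effect and ±100 for the full control effect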); settings: ME-180 AP-1-bla reporter, EGF-induced, beta-lactamase ratio, 5 h; at 7.69 µM (top of the series)
From the text: NCGC Assay Overview: Activator protein-1 (AP-1), a transcription factor, plays an important role in tumor genesis by regulating genes involved in cell proliferation, differentiation, apoptosis, and angiogenesis. AP-1 activity is induced by a complex network of signaling pathways that involves extracellular signals, such as growth factors. The AP-1 protein complex formed from c-Fos and c-Jun binding to the AP-1 response element results in transcriptional activation of genes containing such elements within their promoter. Low molecular weight molecules have been discovered and developed to modulate various components of these signaling pathways, for example, MAP kinase inhibitors. […] Library compounds were measured for their ability to modulate positively or negatively the action of EC50 EGF on reporter gene activity. […]
NCGC Assay Protocol Summary: 2500 cells/5uL in Opti-MEM medium containing 0.5% dialyzed FBS, 0.1 mM NEAA, 1 mM sodium pyruvate and 10 mM HEPES was dispensed into 1536-well plates and cells were cultured at 37 degrees Celsius overnight. […] After incubated at room temperature for 2.5 hours the plates were measured on an EnVision plate reader at Excitation 405nm, Emission1=460nm and Emission 2=530nm. The %Activity was determined from the ratio of 460nm/530nm.

[2] = NFAT Signaling Pathway (AID 444; active = well fitted curve in either direction with a large enough effect, not every such curve was filed as active;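 note: carbachol stimulus at about its EC50 of 1 µM final; % is set by controls: 0 for no effect and ±100 for the full control effect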); settings: Jurkat NFAT-bla M1, carbachol, beta-lactamase ratio, 5 h; at 7.69 µM (top of the series)
From the text: NCGC Assay Overview: The nuclear factor of activated T cells (NFAT) family of transcription factors has been found primarily in most immune system cells and some other non-immune cells. NFAT plays the immunomodulatory role, primarily in T-cell activation and differentiation. NFAT target genes are also involved in the regulation of apoptosis and differentiation in non-immune cell types. The NFAT sequence was engineered to the upstream of the ?-lactamase reporter gene and transfected into Jurkat cells with co-transfection of muscarinic receptor1 [provided by Invitrogen Corp]. When an extracellular stimulus, such as carbachol, binds to the GPCR M1 receptor, it stimulates a signaling cascade that activates NFAT response element and ?-lactamase expression by phosphorylating the NFAT binding protein. […]
NCGC Assay Protocol Summary: The cells were prepared in RPMI 1640 medium containing 0.1% dialyzed FBS and 25 mM HEPES at 1.6 x 10^6cell/ml. The assay was performed in 1536-well plate format as follows: 5 ul of cell preparation 23 nl of compounds 1ul of carbachol (final concentration 1 uM) Briefly centrifuge the plates and incubate at 37 °C for 5 hours 1 ul of CCF4 dye mixture Incubate the plates at RT for 1 hour Read the plate in EnVision plate reader (Ex= 405nm, and Em1=460nm and Em2=530nm). The %Activity was determined from the ratio of 460nm/530nm. […]

[3] = Stat Signaling Pathway (AID 446; active = well fitted curve in either direction with a large enough effect, not every such curve was filed as active;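 note: ME-180 cervical cancer cells given 40 pM IL-6 alongside compound; SIE-controlled beta-lactamase reporter measured as 460/530 nm FRET emission ratio; % is set by controls: 0 for no effect and ±100 for the full control effect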); settings: ME-180 SIE beta-lactamase reporter, IL-6 stimulated, 5 h; at 7.69 µM (top of the series)
Procedure, shortened: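 ME-180 cells carrying a SIE-driven beta-lactamase reporter are stimulated with 40 pM IL-6 for 5 h at 37C in the presence of compound. The 460/530 nm FRET substrate ratio is read after 2.5 h at RT. Data are normalised to 300 pM IL-6 and to 125 nM JAK inhibitor controls.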

[4] = target: Mitogen-activated protein kinase 10 (Mus musculus) (UniProt Q61831); experiment: JNK3 AlphaScreen Assay (AID 530; active = well fitted curve in either direction with a large enough effect, not every such curve was filed as active;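 note: kinase came from lysate of stimulated human HepG2 cells; signal reports phosphorylation of biotinylated GST-cJun 1-79 at Ser73 with 10 µM ATP; % is set by controls: 0 for no effect and ±100 for the full control effect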); settings: JNK3 lysate, c-Jun phosphorylation; at 57.1 µM (top of the series) unless noted
Procedure, shortened: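 qHTS format: compounds tested as titrations against IL-1beta/TNF-alpha-activated HepG2 lysate JNK3 with biotin-GST-cJun substrate and 10 uM ATP at room temperature. Loss of anti-phospho-cJun AlphaScreen signal indicates inhibition.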

[5] = Cell Viability - N2a (AID 540); settings: N2a mouse neuroblastoma cell viability; at 92.2 µM (top of the series);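 note: plate controls were DMSO alone for no effect and tamoxifen control for full effect; nearly all actives have a fitted effect of over 45% in size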
From the text: (§1) NIH Chemical Genomics Center [NCGC]
(§2) NIH Molecular Libraries Screening Centers Network [MLSCN]
(§3) National Institutes of Environmental Health Sciences [NIEHS]
(§4) National Toxicology Program [NTP]
We have developed a 1536-well cell-based assay for quantitative high throughput screening (qHTS) against a number of cell lines to determine in vitro cytotoxicity of small molecules. This particular assay uses the N2a cell line which is derived from mouse neuroblastoma.
(§5) NCGC Assay Protocol Summary:
The CellTiter-Glo luminescent cell viability assay (Promega) is a homogeneous method to measure the number of viable cells in culture. The end point readout of this assay is based on quantitation of intracellular ATP, an indicator of metabolic activity, using the luciferase reaction. Luciferase catalyzes the oxidation of beetle Luciferin to oxyluciferin and light in the presence of ATP. […]
(§6) Using the CellTiter-Glo luminescent cell viability assay, the amount of cellular ATP was measured in the N2a cell line with complete culture medium following compound treatment for 40 hours. […] Library compounds were measured for their ability to cause acute toxicity in the cell line, as reflected by a decrease in intracellular ATP levels, in a concentration-dependent manner. […] AC50 values were determined from concentration-response data modeled with the standard Hill equation. […]
(§7) 8. Detection; Luminescence; Viewlux plate reader […]

[6] = Cell Viability - NIH 3T3 (AID 541); settings: NIH 3T3 cell viability, qHTS; at 92.2 µM (top of the series);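 note: plate controls were DMSO alone for no effect and tamoxifen positive control for full effect; nearly all actives have a fitted effect of over 25% in size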
Procedure, shortened: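 NIH 3T3 mouse embryo fibroblasts (1000 cells/well) were plated in complete medium and treated with compound for 40 hr at 37 °C. Viability was read as intracellular ATP by CellTiter-Glo luminescence; AC50 values came from Hill-equation fits of concentration-response data.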

[7] = Cell Viability - HUV-EC-C (AID 542); settings: HUV-EC-C endothelial cell viability, qHTS; at 92.2 µM (top of the series); note: % is set by controls: 0 for no effect and ±100 for the full control effect; nearly all actives have a fitted effect of over 35% in size
From the text: as §1, §2, §3, §4
We have developed a 1536-well cell-based assay for quantitative high throughput screening (qHTS) against a number of cell lines to determine in vitro cytotoxicity of small molecules. This particular assay uses the HUV-EC-C cell line which is derived from normal human vascular endothelial cells.
as §5
(§8) The CellTiter-Glo luminescent cell viability assay (Promega) is a homogeneous method to measure the number of viable cells in culture. The end point readout of this assay is based on quantitation of intracellular ATP, an indicator of metabolic activity, using the luciferase reaction. […]
as §6, with “HUV-EC-C” for “N2a”
as §7

[8] = Cell Viability - H-4-II-E (AID 543); settings: H-4-II-E rat hepatoma viability; at 92.2 µM (top of the series); note: % is set by controls: 0 for no effect and ±100 for the full control effect; nearly all actives have a fitted effect of over 35% in size
Procedure, shortened: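 Rat hepatoma H-4-II-E cells (1500/well) were plated, incubated 5 hr at 37 °C, then exposed to compounds for 40 hr at 37 °C. Cellular ATP was read by CellTiter-Glo luminescence; AC50 came from Hill-equation fits of concentration-response data.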

[9] = Cell Viability - SH-SY5Y (AID 544); settings: SH-SY5Y neuroblastoma cell viability; at 92.2 µM (top of the series);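 note: 0% = DMSO alone and -100% = 100 µM tamoxifen; nearly all actives have a fitted effect of over 55% in size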
Procedure, shortened: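 Human neuroblastoma SH-SY5Y cells (1500/well) in complete medium were exposed to compounds for 40 hr at 37 °C; intracellular ATP was then quantified by CellTiter-Glo luminescence after 20 min at room temperature. AC50 came from Hill-equation concentration-response fits.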

[10] = Cell Viability - Renal Proximal Tubule (AID 545); settings: renal proximal tubule cells viability, primary cells of rat origin; at 91.7 µM (top of the series);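 note: 0% = DMSO only and -100% = 100 µM tamoxifen; nearly all actives have a fitted effect of over 40% in size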
From the text: as §1, §2, §3, §4
We have developed a 1536-well cell-based assay for quantitative high throughput screening (qHTS) against a number of cell lines to determine in vitro cytotoxicity of small molecules. This particular assay uses the renal proximal tubule cells which are derived from normal kidney cells freshly isolated from rat.
as §5, §8
as §6, with “renal proximal tubule cells” for “N2a cell line”
as §7

NC1CCCCC1.NP(=O)(O)N(CCCl)CCCl
inactive: activity change, negative = inhibition [1] -0.616% | activity change, negative = inhibition [2] 9.97% | activity, negative = inhibition [3] 0.169% | activity change, negative = inhibition [4] 1.44% [at 11.4 µM]

O=C(O)C1(Nc2ccccc2)CCN(Cc2ccccc2)CC1
inactive: activity change, negative = inhibition [1] 3.45% | activity change, negative = inhibition [2] 6.7% | activity, negative = inhibition [3] 12.1% | activity change, negative = inhibition [4] 6.43% [at 11.4 µM]

CCOP(=O)(Cl)Cl
inactive: activity change, negative = inhibition [4] 11% | activity change, negative = cytotoxicity [5] 6.06% | activity change, negative = cytotoxicity [6] 0.762% | activity change, negative = cytotoxicity [7] -6.59% | activity change, negative = cytotoxic [8] -4% | viability change, negative = cytotoxic [9] 3.24% | activity change, negative = cytotoxicity [10] -1.87%

ClCCOP(OCCCl)OCCCl
inactive: activity change, negative = inhibition [4] 26% | activity change, negative = cytotoxicity [5] 0.3% | activity change, negative = cytotoxicity [6] -14.8% | activity change, negative = cytotoxicity [7] 1.23% | activity change, negative = cytotoxic [8] 0.912% | viability change, negative = cytotoxic [9] -17.6% | activity change, negative = cytotoxicity [10] 1.51%
